# Literature values in US10335367B2, “Use of selected anticholinergic zwitterions” (Bodor Laboratories, Inc., priority 2015, dated 2019).
# Test system: rabbit eyes
# Conditions: topical administration; cited from earlier work
substance,measurement,value
(±) 3-(2-cyclopentyl-2-phenyl-2-hydroxyacetoxy)-1-(carboxymethyl)-1-methylpyrrolidinium inner salt,mydriatic activity in rabbit eyes,even lower potency
